Results as given in US8952177B2 (Janssen Pharmaceutica NV, priority 2013, dated 2015).

Protein sequences, listed by entry. Tags and fused reporters are not part of them. Lines headed by an entry give the natural chain unless they say otherwise; changes in a name come on top.
UniProt P20292: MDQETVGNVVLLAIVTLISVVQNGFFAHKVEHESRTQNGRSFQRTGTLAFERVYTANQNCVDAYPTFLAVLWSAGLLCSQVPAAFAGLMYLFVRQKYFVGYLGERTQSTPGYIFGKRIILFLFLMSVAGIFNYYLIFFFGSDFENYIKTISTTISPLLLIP

Target: human FLAP (Homo sapiens (Human), UniProt P20292)
Assay: FLAP binding assay (HTRF format)
Conditions: human FLAP-containing Sf-9 membranes, 25 nM HTRF ligand, 2 h; average of runs; read-out: FLAP Binding wild type HTRF Ki

| Ki [nM] | SMILES |
| --- | --- |
| 9.7 | Cn1ccc(COc2ccc3nc([C@@H]4CCCC[C@@H]4C(=O)O)n(Cc4ccc(N5CCC(F)(F)CC5)cc4)c3c2)n1 (racemic) [Example 86, racemic cis-2-{1-[4-(4,4-Difluoropiperidin-1-yl)benzyl]-6-[(1-methyl-1H-pyrazol-3-yl)methoxy]-1H-benzimidazol-2-yl}cyclohexanecarboxylic acid] |
| 1.1 | Cc1cnc(COc2ccc3nc([C@@H]4CCCC[C@@H]4C(=O)O)n(Cc4ccc(N5CCC(C)CC5)cc4F)c3c2)c(F)c1 (racemic) [Example 177, racemic cis-2-{1-[2-Fluoro-4-(4-methylpiperidin-1-yl)benzyl]-6-[(3-fluoro-5-methylpyridin-2-yl)methoxy]-1H-benzimidazol-2-yl}cyclohexanecarboxylic acid] |
| 21 | Cc1ccc(COc2cc(Cl)c3nc([C@@H]4[C@H](C(=O)O)C4(C)C)n(Cc4ccc(Br)cc4)c3c2)nc1 (racemic) [Example 76, racemic cis-3-{1-(4-Bromobenzyl)-4-chloro-6-[(5-methylpyridin-2-yl)methoxy]-1H-benzimidazol-2-yl}-2,2-dimethylcyclopropanecarboxylic acid] |
| 25 | Cc1cnc(COc2ccc3nc(CC(C)(C)C(=O)O)n(Cc4ccc(N5CCC(C)CC5)cc4)c3c2)c(F)c1 [Example 185, 3-{6-[(3-Fluoro-5-methylpyridin-2-yl)methoxy]-1-[4-(4-methylpiperidin-1-yl)benzyl]-1H-benzimidazol-2-yl}-2,2-dimethylpropanoic acid] |
| 32 | CCC(CC)(Cc1nc2ccc(OCc3ccn(C)n3)cc2n1Cc1ccc(Br)cc1)C(=O)O [Example 42, 2-({1-(4-Bromobenzyl)-6-[(1-methyl-1H-pyrazol-3-yl)methoxy]-1H-benzimidazol-2-yl}methyl)-2-ethylbutanoic acid as the TFA salt] |
| 3.9 | Cn1ccc(COc2ccc3nc(C4CCCC[C@H]4C(=O)O)n(Cc4ccc(Br)cc4)c3c2)n1 (mixture of isomers) [Example 40, racemic cis-2-{1-(4-Bromobenzyl)-6-[(1-methyl-1H-pyrazol-3-yl)methoxy]-1H-benzimidazol-2-yl}cyclohexanecarboxylic acid as the TFA salt] |
| 2.2 | Cc1ccc(COc2ccc3nc([C@@H]4CCCC[C@H]4C(=O)O)n(Cc4ccc(Br)cc4)c3c2)nc1 (single isomer, unassigned) [Example 7] |
| 12 | CCC(CC)(Cc1nc2ccc(OCc3ncc(C)cc3F)cc2n1Cc1ccc(C#N)cc1)C(=O)O [Example 135, 2-({1-(4-Cyanobenzyl)-6-[(3-fluoro-5-methylpyridin-2-yl)methoxy]-1H-benzimidazol-2-yl}methyl)-2-ethylbutanoic acid] |
| 6.6 | Cc1ccc(Cn2c([C@@H]3CCCC[C@@H]3C(=O)O)nc3ccc(OCc4ccc(C)cn4)cc32)cc1 (racemic) [Example 119, racemic cis-2-{1-(4-Methylbenzyl)-6-[(5-methylpyridin-2-yl)methoxy]-1H-benzimidazol-2-yl}cyclohexanecarboxylic acid] |
| 2.9 | Cn1cc(Cl)c(COc2ccc3nc([C@@H]4CCCC[C@@H]4C(=O)O)n(Cc4ccc(Br)cc4)c3c2)n1 (racemic) [Example 81, racemic cis-2-{1-(4-Bromobenzyl)-6-[(4-chloro-1-methyl-1H-pyrazol-3-yl)methoxy]-1H-benzimidazol-2-yl}cyclohexanecarboxylic acid] |
| 70 | Cc1cnc(COc2ccc3nc([C@@H]4CCCC[C@@H]4C(=O)O)n(Cc4ccc(N5CCC(F)CC5)cc4F)c3c2)c(F)c1 (stereo in doubt) [Example 175, (1S*,2R*)-2-{1-[2-Fluoro-4-(4-fluoropiperidin-1-yl)benzyl]-6-[(3-fluoro-5-methylpyridin-2-yl)methoxy]-1H-benzimidazol-2-yl}cyclohexanecarboxylic acid] |
| 6.8 | Cc1ccc(COc2ccc3nc(C4CCCC[C@H]4C(=O)O)n(Cc4ccc(N5CCCCC5)cc4)c3c2)nc1 (mixture of isomers) [Example 156, racemic cis-2-{6-[(5-Methylpyridin-2-yl)methoxy]-1-(4-piperidin-1-ylbenzyl)-1H-benzimidazol-2-yl}cyclohexanecarboxylic acid] |
| ~620 | CCC(CC)(Cc1nc2ccc(OCc3ccn(C)n3)cc2n1Cc1ccc(N2CCCC(F)(F)C2)cc1)C(=O)O [Example 155, 2-({1-[4-(3,3-Difluoropiperidin-1-yl)benzyl]-6-[(1-methyl-1H-pyrazol-3-yl)methoxy]-1H-benzimidazol-2-yl}methyl)-2-ethylbutanoic acid] |
| 9 | Cc1ccc(COc2ccc3nc([C@H]4CCCC[C@@H]4C(=O)O)n(Cc4ccc(OC(F)(F)F)cc4F)c3c2)nc1 (racemic) [Example 21, racemic trans-2-{1-[2-Fluoro-4-(trifluoromethoxy)benzyl]-6-[(5-methylpyridin-2-yl)methoxy]-1H-benzimidazol-2-yl}cyclohexanecarboxylic acid] |
| 29 | CCC(CC)(Cc1nc2ccc(OCc3ccn(C)n3)cc2n1Cc1ccc(N2CCC(C(F)(F)F)CC2)cc1F)C(=O)O [Example 189, 2-ethyl-2-((1-(2-fluoro-4-(4-(trifluoromethyl)piperidin-1-yl)benzyl)-6-((1-methyl-1H-pyrazol-3-yl)methoxy)-1H-benzo[d]imidazol-2-yl)methyl)butanoic acid] |
| 19 | Cc1ccc(COc2cc(Cl)c3nc(C4CCCC[C@@H]4C(=O)O)n(Cc4ccc(Br)cc4)c3c2)nc1 (mixture of isomers) [Example 77, racemic trans-2-{1-(4-Bromobenzyl)-4-chloro-6-[(5-methylpyridin-2-yl)methoxy]-1H-benzimidazol-2-yl}cyclohexanecarboxylic acid] |
| 1.1 | Cc1ccc(COc2ccc3nc([C@H]4CCCC[C@H]4C(=O)O)n(Cc4c(F)cc(Br)cc4F)c3c2)nc1 (racemic) [Example 126, racemic cis-2-{1-(4-Bromo-2,6-difluorobenzyl)-6-[(5-methylpyridin-2-yl)methoxy]-1H-benzimidazol-2-yl}cyclohexanecarboxylic acid] |
| 75 | Cc1ccc(COc2cc(F)c3nc(C4[C@H](C(=O)O)C4(C)C)n(Cc4ccc(OC(F)(F)F)cc4)c3c2)nc1 (mixture of isomers) [Example 74, racemic cis-3-{4-Fluoro-6-[(5-methylpyridin-2-yl)methoxy]-1-[4-(trifluoromethoxy)benzyl]-1H-benzimidazol-2-yl}-2,2-dimethylcyclopropanecarboxylic acid as the TFA salt] |
| 47 | Cc1ccc(Cn2c(C3CCCC[C@@H]3C(=O)O)nc3c(F)cc(OCc4ccc(C)cn4)cc32)cc1 (mixture of isomers) [Example 70, racemic trans-2-{4-Fluoro-1-(4-methylbenzyl)-6-[(5-methylpyridin-2-yl)methoxy]-1H-benzimidazol-2-yl}cyclohexanecarboxylic acid as the TFA salt] |

| SMILES | Ki [nM] |
| --- | --- |
| Cc1cnc(COc2ccc3nc([C@@H]4CCCC[C@@H]4C(=O)O)n(Cc4c(F)cc(Br)cc4F)c3c2)c(F)c1 (racemic) [Example 123, racemic cis-2-{1-(4-Bromo-2,6-difluorobenzyl)-6-[(3-fluoro-5-methylpyridin-2-yl)methoxy]-1H-benzimidazol-2-yl}cyclohexanecarboxylic acid] | 0.61 |

Where a name gives a salt, the structure may show the parent alone.
